Results reported in ChEMBL document CHEMBL1201862, “PubChem BioAssay data set” (2004).
The entries are a selection whose mix differs from that of the whole data set. Only a part of the results of these assays is listed, not drawn at random.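 Cultured in 96-well plates, cells were exposed to test compound for 48 hours across five concentrations. Here, GI50 denotes the concentration required for 50% inhibition of growth.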 This is one part of the list. Cut-off read from the data, not from the text of the source: active = GI50 up to about 1.1 µM and inactive = higher. For some of these results: Results with a measured potency or affinity are listed apart.

system: MCF7; test: NCI tumour cell line growth inhibition, 48 h

SMILES | GI50
CCN(CCO)CCO.Oc1c(Cl)c(Cl)c(Cl)c(Cl)c1Cl | inactive: 29.7 µM
N1=C(c2nnn[nH]2)NNC(c2nnn[nH]2)=N1 | inactive: > 100 µM
CC1=C[C@H]2O[C@@H]3[C@H](O)[C@@H](O)[C@](C)([C@@]2(O)CC1)[C@]31CO1 | active: 0.189 µM

system: MOLT-4; test: NCI tumour cell line growth inhibition, 48 h

SMILES | GI50
CCN(CCO)CCO.Oc1c(Cl)c(Cl)c(Cl)c(Cl)c1Cl | inactive: 22.9 µM
CCCCCCCCCCCCCCC[C@@H]1C[N+](C)(C)CCO[P@@](C)(=O)O1 | inactive: 1.33 µM
CC1=C[C@H]2O[C@@H]3[C@H](O)[C@@H](O)[C@](C)([C@@]2(O)CC1)[C@]31CO1 | active: 0.169 µM

system: Malme-3M; test: NCI tumour cell line growth inhibition, 48 h

SMILES | GI50
CCN(CCO)CCO.Oc1c(Cl)c(Cl)c(Cl)c(Cl)c1Cl | inactive: 18 µM
N1=C(c2nnn[nH]2)NNC(c2nnn[nH]2)=N1 | inactive: > 100 µM
O=[N+]([O-])C(F)(CN(COCN(CC(F)([N+](=O)[O-])[N+](=O)[O-])CC(F)([N+](=O)[O-])[N+](=O)[O-])CC(F)([N+](=O)[O-])[N+](=O)[O-])[N+](=O)[O-] | inactive: 1.62 µM
CC1=C[C@H]2O[C@@H]3[C@H](O)[C@@H](O)[C@](C)([C@@]2(O)CC1)[C@]31CO1 | active: 0.163 µM

system: NCI-H322M; test: NCI tumour cell line growth inhibition, 48 h

SMILES | GI50
CCN(CCO)CCO.Oc1c(Cl)c(Cl)c(Cl)c(Cl)c1Cl | inactive: 18 µM
N1=C(c2nnn[nH]2)NNC(c2nnn[nH]2)=N1 | inactive: > 100 µM
CC1=C[C@H]2O[C@@H]3[C@H](O)[C@@H](O)[C@](C)([C@@]2(O)CC1)[C@]31CO1 | active: 0.414 µM

system: NCI-H460; test: NCI tumour cell line growth inhibition, 48 h

SMILES | GI50
CCN(CCO)CCO.Oc1c(Cl)c(Cl)c(Cl)c(Cl)c1Cl | inactive: 19 µM
N1=C(c2nnn[nH]2)NNC(c2nnn[nH]2)=N1 | inactive: > 100 µM
CC1=C[C@H]2O[C@@H]3[C@H](O)[C@@H](O)[C@](C)([C@@]2(O)CC1)[C@]31CO1 | active: 0.196 µM

system: NCI-H522; test: NCI tumour cell line growth inhibition, 48 h

SMILES | GI50
CCN(CCO)CCO.Oc1c(Cl)c(Cl)c(Cl)c(Cl)c1Cl | inactive: 23.1 µM
N1=C(c2nnn[nH]2)NNC(c2nnn[nH]2)=N1 | inactive: > 100 µM
CC1=C[C@H]2O[C@@H]3[C@H](O)[C@@H](O)[C@](C)([C@@]2(O)CC1)[C@]31CO1 | active: 0.164 µM
